Measurements: patent publication US12122761B2, “2-azaspiro[3.4]octane derivatives as M4 agonists” (NOVARTIS AG, priority 2019, dated 2024)

Protein sequences, listed by entry. Tags and fused reporters are not part of them.
UniProt P08173, whole entry: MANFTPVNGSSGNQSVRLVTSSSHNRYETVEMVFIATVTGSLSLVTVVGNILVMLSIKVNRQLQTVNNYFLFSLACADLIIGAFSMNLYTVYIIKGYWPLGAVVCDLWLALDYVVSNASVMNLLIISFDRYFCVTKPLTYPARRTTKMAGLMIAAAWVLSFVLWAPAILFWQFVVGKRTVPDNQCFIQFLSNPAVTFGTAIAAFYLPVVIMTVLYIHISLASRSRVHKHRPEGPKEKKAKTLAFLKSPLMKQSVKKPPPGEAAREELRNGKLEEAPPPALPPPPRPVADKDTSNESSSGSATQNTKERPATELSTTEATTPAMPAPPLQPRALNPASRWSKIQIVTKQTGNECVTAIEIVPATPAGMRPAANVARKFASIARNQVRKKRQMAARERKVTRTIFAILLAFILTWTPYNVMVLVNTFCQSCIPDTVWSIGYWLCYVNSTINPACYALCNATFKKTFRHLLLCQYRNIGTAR

Target: T1, human cloned CHRM4 receptor (M4_CHO cells) (Homo sapiens, UniProt P08173)
T1 construct: expressed in transfected cells; host or cells: CHO-K1
Experiment: CHRM4 Ca++ Flux Assay (agonist mode, FDSS 7000EX)
Format: cell-based
Conditions: Percent Activity, read-out: M4 FDSS PA
Experimental: The above examples were characterized by measuring the intracellular mobilization of Ca++ ions caused by signaling events mediated by the receptor. The Intra-cellular Calcium flux levels were captured by the highly sensitive Ca++ indicator, Calcium Assay Kit (BD Biosciences, Catalog Number 640178). The fluorescent activity from all receptors were monitored by the fluorescent imager, FDSS 7000EX (Hamamatsu) over a span of 3 minutes.
CHO-K1 cells stably expressing the human cloned CHRM4 receptor (M4_CHO cells) were grown and maintained in a monolayer culture with F12/HAM (Life Technologies) supplemented with 10% Fetal Bovine Serum, 1× Pen-Strep, and 0.4 mg/mL Geneticin in a humidified atmosphere (5% CO2) at 37° C. The cultures were grown to 80-90% confluency in T150 flasks (Corning) and washed with 1×DPBS then lifted with 0.05% Trypsin (Life Technologies). The cells were harvested in growth media then spun (1K rpm, 3 minutes) and cryopreserved using Recovery Cell Culture Freezing Media (Gibco Technologies). […]
Prior to the day of the assay, stable M4_CHO cells were thawed and plated on 384 well black walled clear bottom TC treated plates (Greiner Cat #781091) at 12K cells/well using F12/HAM Media supplemented with 10% FBS (Life Technologies) and kept overnight in a humidified atmosphere (5% CO2) at 37° C. […] The Percent Activity (PA) was measured to EC100 of Carbachol.

SMILES	Emax [%]
COc1ccc(F)cc1C1CCN([C@@H]2CCC3(C2)CN(C(=O)C2COC2)C3)CC1 [Example 6A, (R)-(6-(4-(5-fluoro-2-methoxyphenyl)piperidin-1-yl)-2-azaspiro[3.4]octan-2-yl)(oxetan-3-yl)methanone]	52
CCOc1ccccc1C1CCN([C@@H]2CCC3(C2)CN(C(=O)C2COC2)C3)CC1 [Example 7J, (R)-(6-(4-(2-ethoxyphenyl)piperidin-1-yl)-2-azaspiro[3.4]octan-2-yl)(oxetan-3-yl)methanone]	65
